Four substances from US20180284130A1 can be followed below.

For assay [1], the target named is recombinant human anti-TNP IgG1 (chimeric, TIB142 VH with human IgG1 constant region) (human). The experiment in a line: ELISA; anti-TNP IgG1 on TNP-BSA, biotinylated dimer; EC50 as IgG concentration.
Assay [2] deals with IgG1, Kappa from human myeloma (Sigma-Aldrich) (human). The experiment in a line: ELISA; IgG1 captured by anti-human F(ab')2, biotinylated dimer; EC50 as IgG concentration.
Assay [3] addresses rituximab. The experiment in a line: flow cytometry; Daudi cells opsonised at 10 µg/ml mAb, biotinylated dimer (FIG. 10C).
The target in assay [4] is obinutuzumab (GAZYVA). The experiment in a line: ELISA; mAb captured by F(ab')2 anti-human F(ab')2, biotinylated dimer, streptavidin-HRP (FIG. 8B).
For assay [5], the target named is IgG2, Kappa from human myeloma (Sigma-Aldrich) (human). The experiment in a line: ELISA; IgG2 captured by F(ab')2 anti-human F(ab')2, biotinylated dimer; EC50 as IgG concentration (FIG. 3G).
Assay [6] addresses rituximab. The experiment in a line: flow cytometry; Daudi cells opsonised with rituximab, MFI of dimer / MFI of anti-IgG (FIG. 10E).
In assay [7] the target is IgG1, Kappa from human myeloma (Sigma-Aldrich) (human). The experiment in a line: ELISA; IgG captured by anti-human F(ab')2, biotinylated dimer; EC50 as IgG concentration (FIG. 3 C, K).
The target of assay [8] is IgG2, Kappa from human myeloma (Sigma-Aldrich) (human). The description is as above.
Assay [9] addresses recombinant human anti-TNP IgG4 (chimeric, TIB142 VH with IgG4 constant region) (human). The experiment in a line: ELISA; anti-TNP IgG4 on TNP-BSA, biotinylated dimer; EC50 as IgG concentration (FIG. 3L).
Assay [10] deals with IgG3, Kappa from human myeloma (Sigma-Aldrich) (human). The experiment in a line: ELISA; IgG captured by F(ab')2 anti-human F(ab')2, biotinylated dimer; EC50 as IgG concentration (FIG. 3K).
Assay [11] has as its target IgG1, Kappa from human myeloma (Sigma-Aldrich) (human). The description is as above.
For assay [12], the target named is IgG2, Kappa from human myeloma (Sigma-Aldrich) (human). The description is as above.
The target in assay [13] is recombinant human anti-TNP IgG4 (chimeric, TIB142 VH with IgG4 constant region) (human). The experiment in a line: ELISA; anti-TNP IgG4 on TNP-BSA, biotinylated dimer (FIG. 3D).
The target of assay [14] is recombinant human anti-TNP IgG1 (chimeric, TIB142 VH with human IgG1 constant region) (human). The experiment in a line: ELISA; anti-TNP IgG on TNP-BSA, biotinylated dimer; EC50 as IgG concentration (FIG. 3 D, L).
For assay [15], the target named is IgG3, Kappa from human myeloma (Sigma-Aldrich) (human). The experiment in a line: ELISA; IgG captured by F(ab')2 anti-human F(ab')2, biotinylated dimer; EC50 as IgG concentration (FIG. 3E).
Assay [16] addresses IgG1, Kappa from human myeloma (Sigma-Aldrich) (human). Described as above.
Assay [17] addresses IgG4, Kappa from human myeloma (Sigma-Aldrich) (human). The experiment in a line: ELISA; IgG captured by F(ab')2 anti-human F(ab')2, biotinylated dimer; EC50 as IgG concentration.
Assay [18] deals with IgG2, Kappa from human myeloma (Sigma-Aldrich) (human). The description is as above.

Human rsFcγRIIIa F158 dimer (receptor): the EC50 in assay [1] is 0.57 µg/mL; in assay [2], 0.54 µg/mL.

For the substance Human rsFcγRIIIa V158 dimer (receptor), the EC50 stood at 0.17 µg/mL in assay [1], 0.26 µg/mL in assay [2] and 0.62 µg/mL in assay [5]. Also, the level of binding relative to obinutuzumab opsonised cells in assay [3] came out at 2 fold. The substance also yielded a level of binding relative to rituximab in [4] of 2 fold. This substance also registered a relative stoichiometry of FcR/IgG at 10 µg/ml relative to 0.1 µg/ml in [6] of 5 fold.

Regarding “Human rsFcγRIIa H131 dimer (from UniProt P12318 34-215) (receptor)”, the EC50 in [7] was found to be 0.28 µg/mL; in [8], 0.19 µg/mL; in assay [9], 2 µg/mL; in [10], 0.134 µg/mL; in [11], 0.398 µg/mL; in [12], 0.302 µg/mL. Moreover, the EC50 in assay [14] was found to be 0.4 µg/mL. In addition, the signal relative to the anti-human F(ab')2:IgG4 IC in [13] amounted to 6 fold.

As to “Human rsFcγRIIa R131 dimer (from UniProt P12318 36-215) (receptor)”, the EC50 came out at 0.44 µg/mL in assay [15], 0.17 µg/mL in assay [16], 3 µg/mL in [17] and 6 µg/mL in assay [18].
